Tested on: NMRI/BOM mice
Experiment: Mouse forced swim test
Format: in vivo
Settings: 5-HTP 25 mg/kg SC

CNCCC(Oc1ccc(C(F)(F)F)cc1)c1ccccc1 (stereo not shown)
Potentiation (ratio between ED50 for SRI alone and SRI in combination with 5-HTP): >1.6
